{"sequences": {"note": "Protein sequences, listed by entry. Tags and fused reporters are not part of them. Lines headed by an entry give the natural chain unless they say otherwise; changes in a name come on top.", "UniProt Q9GZQ6": "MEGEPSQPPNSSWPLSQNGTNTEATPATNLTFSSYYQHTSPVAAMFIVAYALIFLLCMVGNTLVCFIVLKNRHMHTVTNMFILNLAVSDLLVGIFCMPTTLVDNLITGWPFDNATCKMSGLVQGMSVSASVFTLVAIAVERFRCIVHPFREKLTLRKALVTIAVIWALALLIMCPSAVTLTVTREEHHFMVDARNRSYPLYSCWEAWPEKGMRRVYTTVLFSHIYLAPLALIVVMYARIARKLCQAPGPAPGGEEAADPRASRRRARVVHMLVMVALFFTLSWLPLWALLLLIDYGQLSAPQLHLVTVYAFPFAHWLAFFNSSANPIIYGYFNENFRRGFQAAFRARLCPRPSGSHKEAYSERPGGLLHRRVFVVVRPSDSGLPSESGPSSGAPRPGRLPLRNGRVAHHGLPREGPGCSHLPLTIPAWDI"}, "source": "the supplement of paper PMC9005190", "molecular_target": "NPFF1 (UniProt Q9GZQ6)", "test": "pEC50 of agonist-induced pathway activation (ebBRET)"}
{"compound": "CC(C)C[C@H](NC(=O)[C@H](CC(N)=O)NC(=O)[C@@H]1CCCN1C(=O)[C@@H](N)C(C)C)C(=O)N1CCC[C@H]1C(=O)N[C@@H](CCC(N)=O)C(=O)N[C@@H](CCCN=C(N)N)C(=O)N[C@@H](Cc1ccccc1)C(N)=O", "note": "[RFRP3]", "values": [{"measurement": "pEC50", "setting": "pathway (G protein / arrestin sensor): G12", "value": 6.92}, {"measurement": "pEC50", "setting": "pathway (G protein / arrestin sensor): G13", "value": 6.69}, {"measurement": "pEC50", "setting": "pathway (G protein / arrestin sensor): G15", "value": 7.4}, {"measurement": "pEC50", "setting": "pathway (G protein / arrestin sensor): Gi1", "value": 8.05}, {"measurement": "pEC50", "setting": "pathway (G protein / arrestin sensor): Gi2", "value": 8.12}, {"measurement": "pEC50", "setting": "pathway (G protein / arrestin sensor): GoA", "value": 8.78}, {"measurement": "pEC50", "setting": "pathway (G protein / arrestin sensor): GoB", "value": 9.14}, {"measurement": "pEC50", "setting": "pathway (G protein / arrestin sensor): Gz", "value": 10.2}, {"measurement": "pEC50", "setting": "pathway (G protein / arrestin sensor): βarr1/GRK2", "value": 7.98}, {"measurement": "pEC50", "setting": "pathway (G protein / arrestin sensor): βarr2", "value": 7.36}, {"measurement": "pEC50", "setting": "pathway (G protein / arrestin sensor): βarr2/GRK2", "value": 7.77}]}
